Publication PMC6249299, “A split luciferase-based probe for quantitative proximal determination of Gαq signalling in live cells” (Scientific Reports, 2018)

Protein sequences, listed by entry. Tags and fused reporters are not part of them.
UniProt P30989, whole entry: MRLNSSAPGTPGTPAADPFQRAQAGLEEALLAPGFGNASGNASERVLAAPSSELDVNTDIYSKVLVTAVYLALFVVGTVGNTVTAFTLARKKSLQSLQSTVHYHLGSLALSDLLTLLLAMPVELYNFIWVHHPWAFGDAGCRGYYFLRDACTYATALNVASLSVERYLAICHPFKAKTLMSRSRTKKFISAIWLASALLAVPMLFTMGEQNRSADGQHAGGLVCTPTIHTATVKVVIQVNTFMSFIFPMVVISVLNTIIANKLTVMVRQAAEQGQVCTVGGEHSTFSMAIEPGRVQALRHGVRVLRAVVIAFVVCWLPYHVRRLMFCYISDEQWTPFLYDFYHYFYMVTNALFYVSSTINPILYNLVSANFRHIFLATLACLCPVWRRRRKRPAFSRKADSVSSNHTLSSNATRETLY

Molecular target: human neurotensin receptor 1 (hNTS1R) (human) (UniProt P30989)

Work on Neurotensin (8–13) (peptide) yielded a pEC50 of activation of the Gαq/PLC-β3 split-luciferase sensor in live HEK293T cells expressing hNTS1R of 8.79 pEC50.
